Results published in patent US11357817B2, “Immunoproteasome inhibitor” (The Regents of the University of California, priority 2017, dated 2022).
Like-named read-outs stand apart in the source and are kept apart here.

Sequences of proteins named here, by UniProt entry; tags and fusion partners are left off. A change or cut given only in a name is not applied to a line headed by its entry.
UniProt P20618: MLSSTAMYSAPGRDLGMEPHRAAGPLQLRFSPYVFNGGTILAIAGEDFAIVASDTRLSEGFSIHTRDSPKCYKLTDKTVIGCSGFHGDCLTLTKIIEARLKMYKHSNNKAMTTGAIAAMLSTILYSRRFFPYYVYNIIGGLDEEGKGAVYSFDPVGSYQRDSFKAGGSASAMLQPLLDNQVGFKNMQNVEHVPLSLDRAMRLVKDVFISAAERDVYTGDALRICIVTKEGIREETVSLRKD
UniProt P28074: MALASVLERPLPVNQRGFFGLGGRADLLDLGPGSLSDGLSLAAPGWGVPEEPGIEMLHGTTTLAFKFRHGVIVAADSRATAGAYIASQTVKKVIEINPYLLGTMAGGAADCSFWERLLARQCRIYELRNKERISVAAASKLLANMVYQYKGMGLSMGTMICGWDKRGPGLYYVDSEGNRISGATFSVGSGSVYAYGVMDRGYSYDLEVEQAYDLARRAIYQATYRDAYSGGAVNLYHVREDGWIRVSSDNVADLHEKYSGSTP
UniProt A0A5K1K7U1, entry or part of it: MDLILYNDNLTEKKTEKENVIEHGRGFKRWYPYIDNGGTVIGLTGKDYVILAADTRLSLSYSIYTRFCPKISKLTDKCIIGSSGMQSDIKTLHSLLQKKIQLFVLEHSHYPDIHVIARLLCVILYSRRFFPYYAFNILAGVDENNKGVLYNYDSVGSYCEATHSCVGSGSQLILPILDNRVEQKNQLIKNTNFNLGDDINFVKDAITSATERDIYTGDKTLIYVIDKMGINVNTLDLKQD
UniProt Q8IJT1, entry or part of it: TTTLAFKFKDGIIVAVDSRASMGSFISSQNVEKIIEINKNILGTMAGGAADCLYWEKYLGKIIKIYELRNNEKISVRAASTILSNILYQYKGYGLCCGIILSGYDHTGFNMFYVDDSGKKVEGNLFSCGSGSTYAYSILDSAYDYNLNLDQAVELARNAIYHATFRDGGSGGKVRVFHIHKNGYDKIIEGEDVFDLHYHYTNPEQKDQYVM
UniProt P28062: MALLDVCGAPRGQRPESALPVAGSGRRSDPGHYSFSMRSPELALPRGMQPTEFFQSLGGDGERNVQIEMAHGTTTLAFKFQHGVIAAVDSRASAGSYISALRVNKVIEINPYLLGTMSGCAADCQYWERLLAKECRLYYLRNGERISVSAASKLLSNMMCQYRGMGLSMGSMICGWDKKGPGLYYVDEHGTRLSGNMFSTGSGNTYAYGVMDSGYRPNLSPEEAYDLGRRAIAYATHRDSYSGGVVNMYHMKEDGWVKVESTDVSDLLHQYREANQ

Legend:
[1] = biological target: T1, c20S (Homo sapiens, UniProt P20618+P28074); assay: Calculation of inhibition constants (inactivation kinetics), c20S; assay type: biochemical
T1 construct: purchased Boston Biochem
Description: (§1) To calculate inhibition constants, activity assays were performed as described above except using 200 μM Suc-LLVY-AMC substrate (“LLVY” disclosed as SEQ ID NO: 1). The rate of AMC release was calculated in the presence of serial dilution of each inhibitor. The rate of product formation were calculated at 30 min intervals for 4 hours, and normalized to activity DMSO control to calculate inactivation curves. Kobs values for each inhibitor concentration were calculated from inactivation curves, and inhibition constants KI and kinact were calculated by non-linear regression of Kobs and inhibitor concentration using GraphPad Prism 6 software.

[2] = biological target: Pf20S (Plasmodium falciparum, UniProt A0A5K1K7U1+Q8IJT1); assay: Calculation of inhibition constants (inactivation kinetics), Pf20S; assay type: biochemical
Description: as §1

[3] = test system: P. falciparum Dd2; assay: P. falciparum Dd2 asexual blood stage SYBR Green I compound sensitivity assay; assay type: cell-based, Plasmodium falciparum; conditions: for Selectivity Index: P. falciparum activity versus HepG2 activity; for increase in selectivity (index) compared to carmaphycin B: P. falciparum versus HepG2
Description: P. falciparum Dd2 strain parasites were cultured under standard conditions (31), using RPMI media supplemented with 0.05 mg/ml gentamycin, 0.014 mg/mL hypoxanthine (prepared fresh), 38.4 mM HEPES, 0.2% Sodium Bicarbonate, 3.4 mM Sodium Hydroxide, 0.05% O+ Human Serum (Denatured at […] for 40 min and From Interstate Blood Bank, Memphis, Tenn.) and 0.0025% Albumax). Human O+ whole blood was obtained from TSRI blood bank (La Jolla, Calif.). Leukocyte-free erythrocytes are stored at 50% hematocrit in RPMI-1640 screening media (as above, but without O+ human serum and with 2× albumax concentration) at 4° C. for one to three weeks before experimental use. Cultures were monitored every one to two days via Giemsa-stained thin smears.
Compound susceptibility was measured using the malaria SYBR Green I-based fluorescence assay (32). Asynchronous P. falciparum parasites (Dd2 strain) were cultured in standard conditions before being plated for the assays. Each compound was tested over 72 hours in technical duplicates on a twelve-point concentration curve prepared by three-fold dilution from 6.7 μM to 0.11 nM. At least three independent experiments were carried out for IC50 determination. Artemisinin and chloroquine were used as controls. IC50 values were obtained using normalized fluorescence intensity from SYBR green I and analyzed via non-linear variable slope four-parameter regression curve-fitting model in Prism 6 (GraphPad Software Inc).

[4] = biological target: immunoproteasome (i20S) (Homo sapiens, UniProt P20618+P28062); assay: Selective inhibition of immunoproteasome (i20S) over constitutive proteasome (c20S); assay type: biochemical; conditions: i20S compared to c20S

Compound | kinact/KI [1] [M⁻¹ s⁻¹] | kinact ([1]; c20S) [s⁻¹] | kinact/KI ([1]; c20S) [M⁻¹ s⁻¹] | kinact [2] [s⁻¹] | kinact/KI ([2]; Pf20S) [M⁻¹ s⁻¹] | Selectivity Index [3] | increase in selectivity (index) compared to carmaphycin B [3] [fold] | kinact/KI [2] [M⁻¹ s⁻¹] | selective inhibition of the immunoproteasome over the constitutive proteasome [4] [fold] | increase in selectivity ([3]; D-amino acid at P3 in place of L-Val of analog 1, comparator not stated) [fold]
CCCCCC(=O)N[C@H](C(=O)N[C@@H](CCCC)C(=O)N[C@@H](CC(C)C)C(=O)[C@@]1(C)CO1)C(C)C [Analog 1, (S)-2-((S)-2-hexanamido-3-methylbutanamido)-N—((S)-4-methyl-1-((R)-2-methyloxiran-2-yl)-1-oxopentan-2-yl)hexanamide] | 1500 | 0.00562 | 1500.3 | 0.00176 | 767.7 | 33.33 | 10 |  |  | 
CCCCCC(=O)N[C@@H](C(=O)N[C@@H](CCCC)C(=O)N[C@@H](CC(C)C)C(=O)[C@@]1(C)CO1)C(C)C [Analog 18, (S)-2-((R)-2-hexanamido-3-methylbutanamido)-N—((S)-4-methyl-1-((R)-2-methyloxiran-2-yl)-1-oxopentan-2-yl)hexanamide] | 15.8 | 0.00062 |  | 5.88e-05 |  | 379.20 | 123 | 158 | 47 | 100
